Results: US20100069498A1, “USE OF ALPHA-KETOGLUTARIC ACID FOR THE TREATMENT OF HIGH PLASMA GLUCOSE CONDITION” (ESSENTYS AB, priority 2003, published 2010)

How the values were obtained:
[1] = Description: Female piglets (n=9) were purchased from the Texas Department of Criminal Justice, Huntsville, Tex.
Pigs (14 d of age) arrived at the Children's Nutrition Research Center and for a 7-day adjustment period were fed a liquid milk replacer diet (Litter Life, Merrick, Middleton, Wis.) at a rate of 50 g/(kg·d).
Briefly, under isoflurane anesthesia and aseptic conditions, the piglets were implanted with a polyethylene catheter (o.d., 1.27 mm, Becton Dickinson, Sparks, Md.) in the common portal vein, and silastic catheters (o.d., 1.78 mm) in an external jugular vein and a carotid artery.
An ultrasonic flow probe (8 to 10 mm i.d., Transonic, Ithaca, N.Y.) was placed around the portal vein.
A silicone catheter (o.d., 2.17 mm, Baxter Healthcare, McGaw Park, Ill.) was implanted into the lumen of the duodenum. The catheters were filled with sterile saline containing heparin (2.5×10^4 U/L), and exteriorized on either the left flank (portal and duodenal catheters, flow probe leads) or between the scapulae (jugular and carotid catheters).
For plasma amino acid analysis, a 0.2 mL aliquot of plasma was mixed with an equal volume of an aqueous solution of methionine sulfone (4 mmol/L) and centrifuged at 10,000×g for 120 min through a 10-kDa cutoff filter.
A 50 μL aliquot of the filtrate was dried and the amino acids were analyzed by reverse-phase HPLC of their phenylisothiocyanate derivatives (Pico Tag, Waters, Woburn, Mass.).
Plasma ammonia was determined using a spectrophotometric assay kit (171-C, Sigma-Aldrich, St. Louis, Mo.).
Plasma glucose was determined using a spectrophotometric assay kit (315-100; Sigma-Aldrich, St. Louis, Mo.).
Net portal balance of metabolites [μmol/(kg·h)] was calculated as follows:
(Conc.PORT−Conc.ART)×PBF (1)
when Conc. is the concentration in the blood (μmol/L), PORT and ART refer to portal and arterial blood and PBF is portal blood flow [L/(kg·h)].
Piglets were deprived of food for 15 h before initiation of the experiment. […]

[2] = Incremental increase of free amino acids in blood after intraduodenal amino acids mixed with Na-AKG or chitosan-AKG; type: in vivo; settings: pigs, intraduodenal infusion with amino-acids
Remark: listed apart in the source
[3] = AKG treatment, duodenal infusion
[4] = piglets, duodenal infusion 930 μmol/(kg·h) AKG (3.75% of diet dry matter), ± SEM

With `O=C(O)CCC(=O)C(=O)O` [AKG, alpha-ketoglutaric acid] the “Effect on portal blood flow vs control” value [1, 3] was “not affected”, the “Proportion of infused AKG appearing in the portal venous drainage, corrected for absorption of AKG from the control diet” value ([1]; piglets, duodenal infusion 930 μmol/(kg·h) AKG) was 8.12% and the Portal blood flow [1, 4] was 56 ± 4.5 mL/min/kg. The “Incremental increase of free amino acids in the blood (Δ), Artery” value ([2]; Time 1 hr) was −0.5^a mmol/L, the “Incremental increase of free amino acids in the blood (Δ), Hepatic vein” value ([2]; Time 1 hr) was 0.43^A mmol/L and the “Incremental increase of free amino acids in the blood (Δ), Artery” value ([2]; Time 1.5 hr) was 0.04^b mmol/L. For the same compound, the “Incremental increase of free amino acids in the blood (Δ), Hepatic vein” value ([2]; Time 1.5 hr) was 1.61^B mmol/L, the “Incremental increase of free amino acids in the blood (Δ), Artery” value ([2]; Time 2.5 hr) was −0.48^a mmol/L and the “Incremental increase of free amino acids in the blood (Δ), Hepatic vein” value ([2]; Time 2.5 hr) was 1.59^B mmol/L. For the same compound, the “Effect on whole body urea flux vs control” value [3] was “not affected”, the “Effect on whole body leucine flux vs control” value (AKG treatment, FIG. 1) was “not affected” and the “Whole-body leucine kinetics (flux, NOLD, Ra, Balance) vs control” value (FIG. 1, n=9, ANOVA) was “not different from control”. The “Whole body urea flux” value [4] was 377.8 ± 39 µmol/kg/h.

Marks after values point to notes of the source that are not given here.
